Measured values: US11938152B2, “High-dose antioxidants in cancer treatment” (priority 2020, dated 2024)

System: non-tumorigenic parotid acinar cells (2HPC8)
Test: Growth of non-tumorigenic parotid acinar cells in culture
Type: cell-based

O=C1O[C@H]([C@@H](O)CO)C(O)=C1O [Vitamin C, ascorbic acid]
growth of non-tumorigenic parotid acinar cells: had no effect on the growth
